The source of these data is US20110306541A1, “METHODS FOR TREATING HCV” (priority 2010, published 2011).

This assay has as its system HCV genotype 1b replicon cells (Huh-luc). Kind of assay: EC50 determinations in Huh-luc replicon cells (Biological Example 2). In kind it is cell-based. The settings on record: for EC50: Hepatitis C virus, 72 h, 3 days, average ± standard deviation. On the procedure:
Compounds were serially diluted 1:3 in 100% DMSO (Sigma). These serial dilutions were added to the cells at a 1:200 dilution to achieve a final concentration of 0.5% DMSO in a total volume of 200 μL. Plates were incubated at 37° C. for 3 days, after which culture media were removed and cells were lysed and assayed for luciferase activity using a commercial luciferase assay (Promega, Madison, Wis.). HCV replication levels in drug-treated samples were expressed as a percentage of those in untreated controls (defined as 100%), and data were fit to the logistic dose response equation y=a/(1+(x/b)^c) using XLFit4 software (IDBS, Emeryville, Calif.). EC50 values were calculated from the resulting equations as described previously.
In general terms: In antiviral work, replicon cells carry a viral genome segment that copies itself.

With `CC[C@@H]1C[C@]1(NC(=O)[C@@H]1C[C@@H](Oc2cc(-c3csc(NC(C)C)n3)nc3c(Cl)c(OCCN4CCOCC4)ccc23)CN1C(=O)[C@@H](NC(=O)O[C@@H]1C[C@@H]2C[C@@H]2C1)C(C)(C)C)C(=O)O` [Compound 3], the EC50 (usually the concentration that produces a half-maximal response) is 2.3 ± 2.6 nM.
For the compound `Fc1ccccc1-c1nc2ccn(Cc3ccc(-c4ccc(C(F)(F)F)cc4C(F)(F)F)nn3)cc-2n1` [Compound 1, 5-((6-(2,4-bis(trifluoromethyl)phenyl)pyridazin-3-yl)methyl)-2-(2-fluorophenyl)-5H-imidazo[4,5-c]pyridine], the EC50 came to 0.4 ± 0.14 nM.
With `NC(=O)c1ncn([C@@H]2O[C@H](CO)[C@@H](O)[C@H]2O)n1` [Ribavirin, 1-β-D-ribofuranosyl-1H-1,2,4-Triazole-3-carboxamide, reference compound], the antiviral activity entry is recorded as “no antiviral activity up to concentrations which were beginning to show cytotoxicity”.
